The term pIC50 denotes −log10 of the IC50, conventionally taken in molar units.

Chains of the proteins cited; added tags and fusions are not shown.
UniProt P97823, whole entry: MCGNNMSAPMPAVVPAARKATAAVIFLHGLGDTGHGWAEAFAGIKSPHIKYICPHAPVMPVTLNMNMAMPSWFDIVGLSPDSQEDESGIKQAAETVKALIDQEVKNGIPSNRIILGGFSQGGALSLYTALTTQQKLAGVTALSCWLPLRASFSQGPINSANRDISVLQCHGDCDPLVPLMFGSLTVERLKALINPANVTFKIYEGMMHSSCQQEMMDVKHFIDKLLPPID
UniProt O75608, whole entry F152L: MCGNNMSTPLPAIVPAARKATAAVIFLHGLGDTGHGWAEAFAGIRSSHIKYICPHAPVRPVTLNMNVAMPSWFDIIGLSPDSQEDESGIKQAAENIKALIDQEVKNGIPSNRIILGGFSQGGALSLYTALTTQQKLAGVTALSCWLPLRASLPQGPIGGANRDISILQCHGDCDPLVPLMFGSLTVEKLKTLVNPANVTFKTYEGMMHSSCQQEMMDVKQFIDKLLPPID

pIC50: −log10 of the molar value.

Experimental findings from patent US7294496B1, “Cloned human lysophospholipase” (The Regents of the University of California, priority 2000, dated 2007) are described below.

The target in one test is mouse LysoPLA (Mus musculus, UniProt P97823). The test can be described thus: Inhibition of mouse LysoPLA. The note with it: mouse enzyme, 125 μM LysoPC; similar results as human enzyme. The protocol:
Various concentrations of each inhibitor (BioMol) were prepared in DMSO. 5 μl of each inhibitor was added to 480 μl of LysoPC substrate (125 μM Ly-soPC in the assay buffer). Enzyme (either mouse or human PLA) was added to the substrate-inhibitor mixture to start the reaction, which was incubated at 40° C. for 30 min. Control experiments were performed with the same amount of enzyme with 5 μl DMSO in the incubation mixture. The reversibility of the inhibition was tested by pre-incubation of the enzyme in the presence or absence of the inhibitor, followed by overnight dialysis in the assay buffer. The recovery of the enzyme activity as a function of time was then followed. Each data point represents an average of duplicates.

Test [1] addresses human recombinant LysoPLA (Homo sapiens, UniProt O75608, F152L). The test can be described thus: Inhibition of human LysoPLA. Format: biochemical.

As to `CCCCC/C=C\C/C=C\C/C=C\C/C=C\CCCCOP(=O)(F)OC` (stereo not shown), the “inhibition of LysoPLA activity (in words)” value at mouse LysoPLA is recorded as “most potent one”; in test [1] (human enzyme, 125 μM LysoPC), “most potent one”. In addition, the reversibility of inhibition entry in test [1] (enzyme and inhibitor mixture assayed after overnight dialysis) is “irreversible”. Besides, the pIC50 in test [1] (read-out: apparent IC50, 125 μM LysoPC, 40° C., 30 min (FIG. 5)) was 6.22.
